This is an account of results in ChEMBL document CHEMBL1133607, “Nonpeptide analogues of dynorphin A(1-8): design, synthesis, and pharmacological evaluation of kappa-selective agonists” (J Med Chem, 2000).

Chains of the proteins cited; added tags and fusions are not shown. Lines headed by an entry give the natural chain unless they say otherwise; changes in a name come on top.
UniProt P41145: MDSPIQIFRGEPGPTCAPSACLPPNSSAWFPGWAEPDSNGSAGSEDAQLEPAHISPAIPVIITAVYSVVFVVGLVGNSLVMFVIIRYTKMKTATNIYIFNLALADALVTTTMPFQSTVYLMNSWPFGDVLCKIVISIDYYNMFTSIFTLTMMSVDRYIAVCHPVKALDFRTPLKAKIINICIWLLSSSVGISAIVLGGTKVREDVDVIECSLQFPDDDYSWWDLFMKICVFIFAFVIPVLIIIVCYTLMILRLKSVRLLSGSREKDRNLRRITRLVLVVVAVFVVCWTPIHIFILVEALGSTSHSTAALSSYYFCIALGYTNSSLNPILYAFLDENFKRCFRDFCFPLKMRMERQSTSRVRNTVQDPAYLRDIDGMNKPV
UniProt P35372, whole entry, looked up: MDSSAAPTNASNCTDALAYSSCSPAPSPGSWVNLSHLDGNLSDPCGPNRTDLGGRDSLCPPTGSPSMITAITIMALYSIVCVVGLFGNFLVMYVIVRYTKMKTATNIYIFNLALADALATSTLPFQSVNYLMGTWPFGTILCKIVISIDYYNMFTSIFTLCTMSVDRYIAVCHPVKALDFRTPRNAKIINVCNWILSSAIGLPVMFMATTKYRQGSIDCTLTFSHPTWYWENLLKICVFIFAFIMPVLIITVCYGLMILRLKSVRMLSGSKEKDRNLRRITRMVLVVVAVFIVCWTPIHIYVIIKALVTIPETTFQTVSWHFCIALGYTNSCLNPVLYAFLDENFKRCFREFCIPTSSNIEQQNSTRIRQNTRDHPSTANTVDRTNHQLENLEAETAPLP

One assay is filed under the species Cavia porcellus. Nature of the assay: Ratio of affinity towards delta to kappa opioid receptor.
The target of assay [1] is Opioid receptors; mu & kappa (UniProt P41145+P35372). The assay can be described thus: Ratio of affinity towards mu and kappa opioid receptors. Type of assay: protein assay.
Assay [2] in a line: Ratio of rotarod value MPE50/antinociceptive activity MPE50.
Assay [3] has as its system Mus musculus. The assay can be described thus: Effective dose after 10 mg/kg of nor-BNI administered subcutaneously 10 min before agonist administered in mouse rotarod test; Full antagonism of the pharmacological effect produced by the ED50 dose of the agonist. Particulars: filed as antagonist. For orientation: Falling from the rotarod earlier than controls is read as motor impairment.

Assay [4] has as its system Mus musculus. The assay can be described thus: Antinociceptive activity by measuring effective dose after 10 mg/kg of nor-BNI administered subcutaneously 10 min before agonist administered in mouse; Full antagonism of the pharmacological effect produced by the ED50 dose of the agonist. Particulars: filed as antagonist.

Turning to `CCCCC(=N)NCCCCCNC(=O)C(CC(C)C)NC(=O)CNC(=O)[C@]1(c2ccccc2)CC1CN1CC[C@@]2(C)c3cc(O)ccc3CC1C2C` (some centres not stated), the Selectivity ratio in the assay filed under Cavia porcellus was 408; in assay [1] it was 375. For the same compound, the Ratio in assay [2] worked out at 10.4.
Regarding `CCCCC(=N)NCCCCCCNC(=O)C(CC(C)C)NC(=O)CNC(=O)[C@]1(c2ccccc2)CC1CN1CC[C@@]2(C)c3cc(O)ccc3CC1C2C` (some centres not stated), the Selectivity ratio in the assay filed under Cavia porcellus turned out to be 424; in assay [1] it was 408. Moreover, the Ratio in assay [2] was determined as 10.8.
With `CCCCC(=N)NCCCCCNC(=O)C(CC(C)C)NC(=O)CNC(=O)[C@]1(c2ccccc2)CC1CN1CC[C@@]2(C)c3cc(O)ccc3CC1C2C.Oc1ccc2c3c1OC1c4[nH]c5c(c4C[C@@]4(O)C(C2)N(CC2CC2)CCC314)C[C@@]1(O)[C@H]2Cc3ccc(O)c4c3C1(CCN2CC1CC1)C5O4` (some centres not stated), the ED50 entry in the assay on Mus musculus [3] and with Mus musculus [4] was “Antagonist” each time.
For `CN(C(=O)Cc1ccc(Cl)c(Cl)c1)C1CCCCC1N1CCCC1` (configuration not stated), the Ratio in assay [2] was determined as 10.8.
For the compound `CCCCC(=N)NCCCCCCNC(=O)C(CC(C)C)NC(=O)CNC(=O)[C@]1(c2ccccc2)CC1CN1CC[C@@]2(C)c3cc(O)ccc3CC1C2C.Oc1ccc2c3c1OC1c4[nH]c5c(c4C[C@@]4(O)C(C2)N(CC2CC2)CCC314)C[C@@]1(O)[C@H]2Cc3ccc(O)c4c3C1(CCN2CC1CC1)C5O4` (some centres not stated), the ED50 result in the assay with Mus musculus [3] and in the assay on Mus musculus [4] was “Antagonist” each time.
`CN(C(=O)Cc1ccc(Cl)c(Cl)c1)C1CCCCC1N1CCCC1.Oc1ccc2c3c1OC1c4[nH]c5c(c4C[C@@]4(O)C(C2)N(CC2CC2)CCC314)C[C@@]1(O)[C@H]2Cc3ccc(O)c4c3C1(CCN2CC1CC1)C5O4` (some centres not stated): the ED50 entry with Mus musculus [3] is “Antagonist”.
